# Yeast mating assay 1: variants of the scFv Ab-14

Values reported by Engelhart et al. 2022, doi:10.1038/s41597-022-01779-4 (FLAb copy).

The target is the same throughout: PDVDLGDISGINAS, from the HR2 region of SARS-CoV-2 spike.

The variants keep the light chain, the linker and the frameworks of Ab-14 (scFv order VH, a (GGGGS)3 linker, VL).
VH: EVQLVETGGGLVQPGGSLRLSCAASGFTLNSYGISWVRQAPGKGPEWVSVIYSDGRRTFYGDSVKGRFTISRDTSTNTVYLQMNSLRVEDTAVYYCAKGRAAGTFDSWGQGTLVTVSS
VL: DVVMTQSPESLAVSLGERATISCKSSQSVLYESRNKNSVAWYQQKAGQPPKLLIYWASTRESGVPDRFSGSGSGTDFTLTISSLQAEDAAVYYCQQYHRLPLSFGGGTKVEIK

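The parent was found by panning a naive human phage display library on the peptide. AAYL49 was designed without a model: most single CDR substitutions and a random sample of double and triple ones. AlphaSeq pools MATa yeast showing the antibodies with MATalpha yeast showing the peptide. Mating (16 h, 30 °C) was followed by selection of diploids and sequencing of their barcodes. Each replicate has its own calibration line, from reference interactions of the BCL2 family. Mating was done three times.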

The parent's heavy chain CDRs are GFTLNSYGIS, VIYSDGRRTFYGDSVK, GRAAGTFDS; each variant's own CDRs replace them letter for letter.
This list gathers variants with a substitution at Y52 (VH, numbered from residue 1).
Scale: log10 of Kd in nM, estimated from mating counts; low values are strong binders.
Replicates are averaged; those with no signal do not enter the mean.
"nd" marks a missing value. The strain was present, yet no cells mated with the target were sequenced in any replicate, which points to weak or no binding.
Background: pairings of library AAYL49 with three empty control strains gave a value in 15% of cases (median 4.06, 5th percentile 2.83). Values in that range, when seen in few replicates, are hard to tell from nonspecific mating.

| CDR-H1 | CDR-H2 | CDR-H3 | mean, log10 nM | detected |
|---|---|---|---|---|
| GFTLNSYGIS | VIHSDGRRTHYGDSVK | GRAAGTFDS | nd | 0 of 3 |
| GFTLNSYGIS | FIWSDGRRTFYGDSVK | GRAAGTFNS | 4.35 | 1 of 3 |
| GFTLNSYGIS | VIHSDGRRTFYGDSVK | GRAEGTFDS | 2.70 | 1 of 3 |
| WFTLNSYGIS | VIPSDGRRVFYGDSVK | GRAAGTFDS | 3.60 | 1 of 3 |
| GFTLNSYGIS | VIHSDGRQTFYGDSVK | GRAAGTFDS | 4.73 | 1 of 3 |
| GFTLNSYGIS | VIMSDGRRTFYGDSVK | GMFAGTFDS | 4.47 | 1 of 3 |
| GFTLNSYGIS | VIFSDGRETFYGDSVK | GRAASTFDS | nd | 0 of 3 |
| GFTLNSYGIS | VITQDGRRLFYGDSVK | GRAAGTFDS | nd | 0 of 3 |
| GFTLNSYGIS | VFTSDGRRTFYGDSAK | GRAAGTFDS | nd | 0 of 3 |
| GFTLNSYKIS | VIVSDGRRTFYGDSVK | GRAAGTFDS | 2.90 | 1 of 3 |
| GFTLNSYGIS | VIASDGRRTFYIDSVK | GRAAGTTDS | 3.60 | 1 of 3 |
| GFTLNSNGIS | VIPSDGRRTFYGDSVK | GRAAGAFDS | nd | 0 of 3 |
| GFTLNSYGIS | VITSKGRRHFYGDSVK | GRAAGTFDS | 4.13 | 2 of 3 |
| GFTLNSCGIS | VISSDGRRTSYGDSVK | GRAAGTFDS | nd | 0 of 3 |
| GFTLNSLGSS | VIESDGRRTFYGDSVK | GRAAGTFDS | 4.29 | 1 of 3 |
| GFTLNSYGIS | WIESDGRRTFYGPSVK | GRAAGTFDS | 3.36 | 1 of 3 |
| GFTLNSYGIS | VIKSIGRRTFYGDSVK | GRAAGTFDK | nd | 0 of 3 |
| GFTLNSYGIS | VIRSDPRRTFYGDYVK | GRAAGTFDS | 3.97 | 2 of 3 |
| GFTLNSYGIS | VINSDGRRTFMGTSVK | GRAAGTFDS | nd | 0 of 3 |
| GFTLLSYGIS | VIMSDGRRTWYGDSVK | GRAAGTFDS | 3.37 | 1 of 3 |
| GFTLNSYGIS | VIDSDGRRTFYGHSVK | GRAAGTFDL | nd | 0 of 3 |
| GFTLNSYGIS | VIISDGRRTPQGDSVK | GRAAGTFDS | nd | 0 of 3 |
| GFTINSYGIS | VIESDDRRTFYGDSVK | GRAAGTFDS | 5.70 | 2 of 3 |
| LFTLTSYGIS | VIVSDGRRTFYGDSVK | GRAAGTFDS | nd | 0 of 3 |
| GFTLNSYLIS | VIVSDGRRTFYGDSVK | GRAAGVFDS | 3.34 | 1 of 3 |
| GFTLNSYGIS | VIQSAGRRTFYGDSVK | NRAAGTFDS | 3.69 | 1 of 3 |
| GFTLNSYGIS | VIDSDGRRTFYGASVK | GRAAGTFDS | 4.50 | 2 of 3 |
| GFTLNSYDIS | VIDSDGRRYFYGDSVK | GRAAGTFDS | nd | 0 of 3 |
| GFTLNSMGIS | VIESDGRRTFYGDSVK | GRAAGTPDS | nd | 0 of 3 |
| GFTLNSYGIS | VISSDGRRTFYGDSVK | GRAAGTFDS | 3.64 | 1 of 3 |
| GFTLNSYGIS | VITSDGRRTFYGDSVK | GRAAGTFDS | 5.78 | 1 of 3 |
| GFTLNGYGIS | VIQSDGKRTFYGDSVK | GRAAGTFDS | nd | 0 of 3 |
| GFTLNSYGIL | VIMSDGRRTFYGDSVK | GRRAGTFDS | nd | 0 of 3 |
| GFTLNSYGIS | VIGEDGRRTFYGDSVK | GRAAGTFDS | nd | 0 of 3 |
| GFTLNSYGWS | VIFSDGRRTFYGDSVK | GRAAGTFDS | 5.17 | 1 of 3 |
| GFTLNSYGIS | VIMSDGRRTFYGDSVK | GRAAGEFDS | nd | 0 of 3 |
| GFTLNSYGYS | VIQSDGRRTFYGDSVK | GRAAGDFDS | 4.04 | 1 of 3 |
| VFTLNSYGIS | VIWSDGRRTFYGDSVK | GRAAGTFDQ | 4.55 | 1 of 3 |
| GFTLNSYGIS | MIWSDGRRTFYGDSVK | GRPAGTFDS | nd | 0 of 3 |
| GFELNSYGIS | VIISDGRRTFYGRSVK | GRAAGTFDS | 4.80 | 2 of 3 |
| GFTLNSYGIS | VIRSDGTRTFYGDSYK | GRAAGTFDS | 4.06 | 2 of 3 |
| GFTLNSYGIS | VIISDGRRTFYGNSVK | GRASGTFDS | nd | 0 of 3 |
| GFTLNSYGIS | VILSDGRRTHYGDSVK | GRAAGTFDS | 3.86 | 1 of 3 |
| GFTLNSYGIS | VIWSDGRRTFYGDDVK | DRAAGTFDS | 4.00 | 1 of 3 |
| GFTLNSYGIS | VIVSDGRATFYGDSVK | GRAAGTDDS | nd | 0 of 3 |
| GFTLNSYGIS | RIGSDGRGTFYGDSVK | GRAAGTFDS | nd | 0 of 3 |
| GFTLNSYGIS | VIRSDGRRLFYGDSVT | GRAAGTFDS | nd | 0 of 3 |
| GFTLNSYGIP | VIESDGRRTFYGDRVK | GRAAGTFDS | 5.03 | 2 of 3 |
| GFTLNSYGIV | VIFSDGRRTFYGDSVC | GRAAGTFDS | 3.63 | 3 of 3 |
| GFTLNTYGIS | SIQSDGRRTFYGDSVK | GRAAGTFDS | 5.10 | 3 of 3 |
| GFTLNSYGIS | VIGDDGRRTFYGDSVK | GRAAGTFDT | nd | 0 of 3 |
| AFTLNSFGIS | VIWSDGRRTFYGDSVK | GRAAGTFDS | 4.64 | 1 of 3 |
| GFTLNSYGIS | VIRSDGRRGFYGDSVR | GRAAGTFDS | nd | 0 of 3 |
| GFTLNSYGIS | VIWSDGRRQFYGDSVK | GRAAGTFDS | nd | 0 of 3 |
| GFTLNSYGMS | VITSDGRRTFYGDSVN | GRAAGTFDS | 3.16 | 1 of 3 |
| GFTLQSYGIS | VISSDGRRTFYGDSVK | GRAAGTFDS | nd | 0 of 3 |

A selection of 4 entries from above:

CDR-H1	CDR-H2	CDR-H3	mean, log10 nM	detected
GFTLNSYGIS	VIKSIGRRTFYGDSVK	GRAAGTFDK	nd	0 of 3
GFTLNSYGIS	VINSDGRRTFMGTSVK	GRAAGTFDS	nd	0 of 3
GFTLNSYGIS	VIHSDGRRTHYGDSVK	GRAAGTFDS	nd	0 of 3
GFTLNSYGIS	VIRSDGRRGFYGDSVR	GRAAGTFDS	nd	0 of 3